# Data reported in patent US10330683B2, “Mutant smoothened and methods of using the same” (Genentech, Inc., priority 2015, dated 2019).
# Protein sequences, listed by entry. Tags and fused reporters are not part of them. Residues count along the entry.
# UniProt Q99835, 28-787 W281C: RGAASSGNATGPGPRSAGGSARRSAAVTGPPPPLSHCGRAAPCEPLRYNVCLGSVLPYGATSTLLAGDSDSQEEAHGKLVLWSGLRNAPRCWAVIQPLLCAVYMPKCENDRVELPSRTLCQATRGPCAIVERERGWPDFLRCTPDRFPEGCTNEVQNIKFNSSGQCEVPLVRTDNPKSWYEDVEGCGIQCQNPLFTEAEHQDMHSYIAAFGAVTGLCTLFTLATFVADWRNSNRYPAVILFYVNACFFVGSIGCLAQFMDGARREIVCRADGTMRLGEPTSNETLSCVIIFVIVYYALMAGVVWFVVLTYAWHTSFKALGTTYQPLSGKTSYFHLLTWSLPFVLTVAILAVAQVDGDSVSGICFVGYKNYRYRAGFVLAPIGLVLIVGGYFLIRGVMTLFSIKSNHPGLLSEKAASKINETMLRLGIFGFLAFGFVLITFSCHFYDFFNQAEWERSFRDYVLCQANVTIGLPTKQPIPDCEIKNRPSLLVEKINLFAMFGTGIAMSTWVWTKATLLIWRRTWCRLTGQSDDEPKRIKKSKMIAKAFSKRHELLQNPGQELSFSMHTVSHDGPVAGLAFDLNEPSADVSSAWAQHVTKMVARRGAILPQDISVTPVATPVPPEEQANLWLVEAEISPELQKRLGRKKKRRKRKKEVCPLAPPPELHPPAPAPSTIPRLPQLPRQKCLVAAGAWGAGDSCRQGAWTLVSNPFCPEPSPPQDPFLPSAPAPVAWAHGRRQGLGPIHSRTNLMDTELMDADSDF
# What was measured:
# [1] = tested on: PPT CGNPs infected with SMO-W281C; test: methyl-[3H]-thymidine incorporation (proliferation) of virally transduced PPT CGNPs after removal of SHH; type: cell-based, mice; conditions: 5 μM vismodegib
# Source text: It has previously been noted that Hh-driven tumor cells rapidly lose their Hh pathway dependence during culturing (Sasai et al., 2006). However, CGNPs proliferate in vivo in a Hh dependent manner and maintain their Hh pathway dependence in culture for a finite period (Wechsler-Reya and Scott, 1999). CGNPs isolated from Ptch1loxp/loxp Tp53loxp/loxp Rosa26LSL-tdTomato (PPT) pups were infected with lentiviral constructs expressing a SMO variant together with an enhanced green fluorescent protein (eGFP)-Cre fusion protein (FIG. 12C). The Cre recombinase induces loss of Ptch1 and thus ensures that only transduced CGNPs can proliferate in the absence of exogenous Sonic hedgehog ligand (SHH; FIG. 11D). […] Proliferation by methyl-[3H]-thymidine incorporation was monitored, while Cre-dependent tandem dimer (td) Tomato expression enabled visualization and quantification of infected cells. This system also enabled better model patient genetics because most of the SMO mutations were identified in tumors that harbored TP53 mutations and were driven by loss of PTCH1. […] It was confirmed that CGNPs were infected at similar frequencies by fluorescence-activated cell sorting (FACS) analysis for Cre-dependent tdTomato reporter expression, and that the SMO variants were expressed at equivalent levels by quantitative reverse transcription (qRT) PCR. […]
# SMO-W281C = SMO-W281C (Homo sapiens, UniProt Q99835, W281C); conditions: 5 nM [3H]-vismodegib, cell surface levels similar to SMO-WT, FIG. 12B
smiles,measurement,setting,value
CS(=O)(=O)c1ccc(C(=O)Nc2ccc(Cl)c(-c3ccccn3)c2)c(Cl)c1 [vismodegib],proliferation in the presence of vismodegib,[1],continued to proliferate at near untreated levels
same,binding of [3H]-labeled vismodegib,SMO-W281C,impaired
